Target: T1, HiBit-BRG1 fusion protein in stable HeLa cell line expressing HiBit-BRG1 and LgBit (Homo sapiens, UniProt P51532)
T1 construct: expressed in transfected cells
Test: HiBiT-BRG1 cell-based degradation assay (Nano-Glo HiBiT, 24 h)
Parameters: dose or concentration left out as unconfirmed
Conditions: read-out: BRG1 HiBit Degradation Maximum (%)
Experimental: Procedure: A stable HeLa cell line expressing HiBiT-BRM was generated. On day 0, 5000 cells were seeded in 40 μL of media into each well of 384-well cell culture plates. […] Subsequently plates were incubated for 24 h in a standard tissue culture incubator and equilibrated at room temperature for 15 minutes. Nano-Glo HiBiT Lytic Detection System (Promega N3050) reagent was freshly prepared and 20 ul was added to each well. Upon addition of this LgBit-containing reagent, the HiBiT and LgBiT proteins associate to form the luminescent NanoBiT luciferase. The plates were shaken for 10 minutes at room temperature and the bioluminescence read using an EnVision plate reader (PerkinElmer). For measurement of BRG1 degradation, a stable HeLa cell line expressing HiBit-BRG1 and LgBit was generated. The same protocol as above was then followed. The degradation % was calculated using the following formula: % degradation=100%−100%×(Lumsample−LumLC)/(LumHC−LumLC). DMSO treated cells are employed as High Control (HC) and 2 μM of a known BRM/BRG1 degrader standard treated cells are employed as Low Control (LC).

The chains behind the UniProt entries cited, without tags or fusion partners.
UniProt P51532, whole entry: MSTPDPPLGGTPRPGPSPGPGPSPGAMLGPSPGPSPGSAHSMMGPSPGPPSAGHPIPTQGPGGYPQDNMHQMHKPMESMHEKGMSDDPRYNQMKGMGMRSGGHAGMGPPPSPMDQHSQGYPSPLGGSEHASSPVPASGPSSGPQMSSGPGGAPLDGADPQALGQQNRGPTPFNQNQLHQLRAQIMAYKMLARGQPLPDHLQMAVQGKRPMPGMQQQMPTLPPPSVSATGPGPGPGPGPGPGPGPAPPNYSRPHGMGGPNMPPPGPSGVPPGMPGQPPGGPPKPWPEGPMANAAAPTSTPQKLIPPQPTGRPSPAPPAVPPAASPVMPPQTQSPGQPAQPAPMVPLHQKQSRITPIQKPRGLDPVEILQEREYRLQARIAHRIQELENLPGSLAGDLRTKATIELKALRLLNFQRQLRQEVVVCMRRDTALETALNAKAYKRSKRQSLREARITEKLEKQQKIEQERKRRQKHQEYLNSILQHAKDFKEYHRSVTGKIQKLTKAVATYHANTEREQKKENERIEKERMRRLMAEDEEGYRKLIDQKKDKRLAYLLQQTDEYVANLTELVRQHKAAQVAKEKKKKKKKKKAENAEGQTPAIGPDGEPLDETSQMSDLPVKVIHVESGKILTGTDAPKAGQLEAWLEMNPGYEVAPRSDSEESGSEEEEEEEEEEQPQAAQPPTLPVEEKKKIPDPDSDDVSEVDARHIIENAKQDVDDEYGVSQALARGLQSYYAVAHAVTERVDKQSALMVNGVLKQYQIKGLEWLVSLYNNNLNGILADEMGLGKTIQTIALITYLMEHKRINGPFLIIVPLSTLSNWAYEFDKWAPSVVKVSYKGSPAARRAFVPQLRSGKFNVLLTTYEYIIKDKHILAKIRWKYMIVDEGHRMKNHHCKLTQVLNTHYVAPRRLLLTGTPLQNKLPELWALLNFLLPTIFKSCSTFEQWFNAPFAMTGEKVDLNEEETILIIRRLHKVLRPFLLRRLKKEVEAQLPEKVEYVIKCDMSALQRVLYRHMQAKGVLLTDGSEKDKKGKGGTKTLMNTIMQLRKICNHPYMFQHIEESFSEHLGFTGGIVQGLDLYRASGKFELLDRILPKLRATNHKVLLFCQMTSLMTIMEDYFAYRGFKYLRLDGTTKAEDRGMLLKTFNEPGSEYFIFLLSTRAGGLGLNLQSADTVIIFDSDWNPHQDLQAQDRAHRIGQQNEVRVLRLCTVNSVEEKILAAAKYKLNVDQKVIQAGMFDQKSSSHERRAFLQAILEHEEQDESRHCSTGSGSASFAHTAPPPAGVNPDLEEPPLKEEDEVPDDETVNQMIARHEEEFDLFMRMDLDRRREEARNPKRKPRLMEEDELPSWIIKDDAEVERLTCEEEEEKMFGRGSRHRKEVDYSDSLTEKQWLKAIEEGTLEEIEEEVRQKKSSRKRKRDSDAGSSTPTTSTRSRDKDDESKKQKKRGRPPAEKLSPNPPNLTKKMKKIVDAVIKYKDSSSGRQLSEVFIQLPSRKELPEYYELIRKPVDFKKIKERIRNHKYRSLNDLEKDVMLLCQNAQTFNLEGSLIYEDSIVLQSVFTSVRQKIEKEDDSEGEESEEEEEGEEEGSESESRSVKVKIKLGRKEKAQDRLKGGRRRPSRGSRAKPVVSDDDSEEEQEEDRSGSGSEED

Compound | Dmax
Cc1ncsc1-c1ccc([C@H](C)NC(=O)[C@@H]2C[C@@H](O)CN2C(=O)[C@H](C2CC2)n2cc(N3CC4(CN(c5ccc6cc(-c7ccccc7O)nnc6c5)C4)C3)nn2)cc1 (single isomer, unassigned) [Compound 210] | < 50%
Cc1ncsc1-c1ccc([C@H](C)NC(=O)[C@@H]2C[C@@H](O)CN2C(=O)[C@@H](c2cc(N3CC4(CN(c5ccc6cc(-c7ccccc7O)nnc6c5)C4)C3)no2)C(C)C)cc1 (single isomer, unassigned) [Compound 51] | < 50%
